ChEMBL document CHEMBL1133485, “3alpha-(4-Substituted phenyl)nortropane-2beta-carboxylic acid methyl esters show selective binding at the norepinephrine transporter” (Bioorg Med Chem Lett, 2000)

Protein sequences, listed by entry. Tags and fused reporters are not part of them.
UniProt Q9WTR4, whole entry: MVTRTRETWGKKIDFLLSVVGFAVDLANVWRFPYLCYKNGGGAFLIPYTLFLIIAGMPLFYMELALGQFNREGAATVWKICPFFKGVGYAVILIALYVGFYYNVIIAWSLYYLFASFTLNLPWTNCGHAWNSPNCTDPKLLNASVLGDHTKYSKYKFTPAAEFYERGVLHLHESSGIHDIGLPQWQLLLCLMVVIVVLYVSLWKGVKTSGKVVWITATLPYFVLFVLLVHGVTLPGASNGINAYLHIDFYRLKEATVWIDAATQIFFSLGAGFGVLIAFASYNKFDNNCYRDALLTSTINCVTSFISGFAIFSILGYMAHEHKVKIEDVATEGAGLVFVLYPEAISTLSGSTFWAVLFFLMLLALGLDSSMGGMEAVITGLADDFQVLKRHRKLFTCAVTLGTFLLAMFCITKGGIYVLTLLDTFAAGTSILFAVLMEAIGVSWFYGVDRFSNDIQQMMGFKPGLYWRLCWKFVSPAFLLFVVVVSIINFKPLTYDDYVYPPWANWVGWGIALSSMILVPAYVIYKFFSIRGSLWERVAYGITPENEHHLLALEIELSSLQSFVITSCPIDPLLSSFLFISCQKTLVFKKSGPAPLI

Target: Norepinephrine transporter (Rattus norvegicus, UniProt Q9WTR4)
Experiment: Inhibition of 0.5 nM [3H]nisoxetine binding to Norepinephrine transporter

Q: For COC(=O)[C@@H]1C2CC[C@@H](C[C@@H]1OC(=O)c1ccccc1)N2C (single isomer, unassigned) [COCAINE], which Ki is on record?
A: 1900 nM
